# Assay results as given in US10071163B2, “Compositions and methods for selective delivery of oligonucleotide molecules to specific neuron types” (nLife Therapeutics, S.L., priority 2010, dated 2018).
# Chains of the proteins cited; added tags and fusions are not shown.
# UniProt Q60857, whole entry: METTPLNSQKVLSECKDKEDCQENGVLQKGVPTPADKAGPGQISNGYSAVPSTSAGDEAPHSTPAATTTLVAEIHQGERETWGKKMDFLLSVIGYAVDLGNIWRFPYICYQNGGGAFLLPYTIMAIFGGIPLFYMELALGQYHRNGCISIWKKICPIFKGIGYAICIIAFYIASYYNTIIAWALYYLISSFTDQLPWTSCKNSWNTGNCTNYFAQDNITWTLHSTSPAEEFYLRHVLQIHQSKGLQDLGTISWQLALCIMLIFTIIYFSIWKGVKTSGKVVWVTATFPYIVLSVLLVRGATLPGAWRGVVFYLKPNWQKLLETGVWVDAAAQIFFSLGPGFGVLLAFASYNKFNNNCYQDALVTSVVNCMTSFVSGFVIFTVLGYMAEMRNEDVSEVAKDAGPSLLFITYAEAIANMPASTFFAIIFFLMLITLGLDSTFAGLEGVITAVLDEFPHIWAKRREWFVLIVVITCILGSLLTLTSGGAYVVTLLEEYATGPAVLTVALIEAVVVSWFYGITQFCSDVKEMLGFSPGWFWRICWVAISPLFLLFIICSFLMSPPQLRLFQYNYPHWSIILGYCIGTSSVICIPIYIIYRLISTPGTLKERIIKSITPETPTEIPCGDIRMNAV
# Target: T1, 5-HTT (Mus musculus, UniProt Q60857)
# T1 construct: from tissue; host or cells: mouse brain (raphe nuclei, striatum and other regions): living animal or frozen sections
# Assay: Microdialysis of 5-HT in dorsal striatum after fluoxetine or local citalopram, intranasal 5-HTT-NLF-siRNA
# Type: in vivo, mice (C57BL/6J)
# Conditions: intranasal 10 and 30 μg
substance,measurement,setting,value
5-HTT-NLF-siRNA: 5-HTT-targeted siRNA (SEQ ID NO 14/15) conjugated to a group of formula (I) and one targeting agent (sertraline) (chain 1 GCUAGCUACAACAAGUUCATT; chain 2 UGAACUUGUUGUAGCUAGCTT; further chemistry not given here),local citalopram effect on 5-HT levels in striatum of siRNA-treated mice,"citalopram 1-10-50 μM local, FIG. 16B",only at 50 μM produced a light increase
same,fluoxetine-induced increase of 5-HT level in dorsal striatum of siRNA-treated mice,"fluoxetine 20 mg/kg i.p., FIG. 16A",not in 5-HTT-NLF-siRNA groups
